Results taken from US20110027341A1, “DEVICE FOR IN SITU PRODUCTION AND TOPICAL ADMINISTRATION OF ALLICIN” (YEDA RESEARCH AND DEVELOPMENT CO., LTD. at the Weizmann …, priority 2008, published 2011).

Assay: Storage stability of dry alliin/alliinase components and filters (potential to produce allicin)
Type: physicochemical
Conditions: dry form at room temperature
Experimental: In preliminary experiments conducted by the inventors of the present invention, a method for isolation of the natural substrate alliin from garlic cloves has been developed, and the enzyme alliinase has been purified and stabilized in a dry form.
In preliminary experiments conducted by the inventors of the present invention, various amounts of alliin (100-200 μl from a solution of 50 mg/ml in water) and alliinase (100-200 μl from a solution of 120 enzyme units/ml in PBS pH 7.2 containing 5% mannitol) were adsorbed on different types of matrices, e.g., glass fiber filters, and upon wetting of the two matrices, when placed one on top of the other, using an aqueous buffered solution, different amounts of allicin were produced. For example, glass fiber filter matrices containing 2.5-10 mg of alliin together with glass fiber filter matrices each containing 14 units of dry alliinase yielded between 0.5-1.0 mg allicin following wetting of the two matrices and incubation at room temperature for 30 minutes.

With alliin as the substance, how does the “preservation of potential for producing allicin” value read?
The value was “preserved their potential for producing allicin for several months”.
